Literature values in patent US9399145B2, “Nanoscale neuromodulating platform for retina neuron activation apparatus and method” (The Board of Trustees of the University of Illinois, priority 2005, dated 2016).

Protein sequences, listed by entry. Tags and fused reporters are not part of them. Residues count along the entry.
UniProt P24046, 22-479: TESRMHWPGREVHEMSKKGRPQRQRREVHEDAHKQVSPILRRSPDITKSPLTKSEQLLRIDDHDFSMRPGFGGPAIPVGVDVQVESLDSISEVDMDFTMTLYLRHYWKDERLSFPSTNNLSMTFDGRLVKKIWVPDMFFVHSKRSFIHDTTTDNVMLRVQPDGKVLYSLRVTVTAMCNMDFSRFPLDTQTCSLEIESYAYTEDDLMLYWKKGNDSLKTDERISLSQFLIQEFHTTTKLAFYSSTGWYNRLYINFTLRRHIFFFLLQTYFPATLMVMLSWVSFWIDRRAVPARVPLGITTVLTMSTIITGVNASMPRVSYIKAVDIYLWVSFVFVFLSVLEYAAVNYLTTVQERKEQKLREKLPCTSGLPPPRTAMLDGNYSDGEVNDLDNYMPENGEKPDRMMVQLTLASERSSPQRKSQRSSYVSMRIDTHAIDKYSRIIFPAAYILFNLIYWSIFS

Target: GABAc (Homo sapiens, UniProt P24046)
Conditions: Chebib et al., 1997b; cited from earlier work

CCCCP(=O)(O)CCCN [CGP36742, 3-aminopropyl n-butyl phosphinic acid]
IC50: 60 µM
